Yeast mating assay B: variants of the scFv Ab-14

All variants were tested on one target, the spike HR2 peptide PDVDLGDISGINAS (SARS-CoV-2).

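Phage display of a naive human antibody library on the peptide gave the parent. This is the validation round: designs drawn from the data on random variants, tested in the same kind of assay. Several design methods are mixed in this list. AlphaSeq pools MATa yeast showing the antibodies with MATalpha yeast showing the peptide. The frequency of each diploid, read from paired DNA barcodes, reflects how well the two displayed proteins bind. Read counts were normalised to the haploid input and turned into Kd by a linear fit to BCL2-family pairs of known affinity, for each replicate. Each pool was mated in six replicate cultures.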

The variants keep the heavy chain, the linker and the frameworks of Ab-14 (scFv order VH, a (GGGGS)3 linker, VL).
VH: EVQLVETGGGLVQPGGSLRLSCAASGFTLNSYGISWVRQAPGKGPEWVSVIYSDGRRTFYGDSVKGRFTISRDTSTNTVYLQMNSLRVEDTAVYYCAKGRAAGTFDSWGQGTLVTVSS
VL: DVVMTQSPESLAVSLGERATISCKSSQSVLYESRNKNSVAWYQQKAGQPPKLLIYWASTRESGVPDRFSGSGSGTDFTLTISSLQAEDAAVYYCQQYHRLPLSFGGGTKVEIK

Each variant is given by its three light chain CDRs, as the data file delimits them; those of the parent are KSSQSVLYESRNKNSVA, WASTRES, QQYHRLPLS. Scale: log10 of Kd in nM, estimated from mating counts; low values are strong binders. The mean shown is taken over the replicates in which the pair was detected. "no signal" means that the variant was in the library but no mating with the target was seen in any replicate; the authors take this as a sign of poor binding, and no number exists. As a blank, each scFv also met three strains without target: over all light chain designs, 4% of these pairings were detected, typically at 2.64 and seldom below 1.59. The control count says in how many pairings with the empty strains this scFv gave a signal.

"mean, log10 nM",replicates with signal,empty controls,CDR-L1,CDR-L2,CDR-L3
1.67,6/6,0/18,KLDMFIPSQWEWDASIA,GTTLRCT,QDYARLPLS
no signal,0/6,0/18,MMLSHSLEVQNINNAVA,EASMVYD,QQYVSLPLS
1.47,6/6,0/18,MISQLWNMGQFAINSVA,QASQRNA,QQYDRLPLI
2.31,5/6,2/18,KSSQSVLREDRNKNSVA,WASARES,QQYHRLPLS
0.56,6/6,1/18,KLQTLTYFENIGEHSVA,DVNTHVD,QQYFRLPLS
0.05,6/6,1/18,KLTGVTSYEMQNKNSVA,QMTTRES,QQYHRLPLS
1.10,6/6,0/18,SLSESEREENSVEQNIA,DGTEHMR,QQYFQLPLL
-0.28,6/6,3/18,HQSNSVLYESRNKNSVA,NGSTREV,QQYHRLPLS
2.60,2/6,0/18,KSMQSVLYESRNKNSVA,WASTRNS,QQYHRLPLS
0.50,6/6,1/18,KIGMTLNQLYEKVNNVA,DLVERED,QQYHRLPLS
0.90,6/6,0/18,MISHVMNTLTRNGNNVA,DLAERED,QQYFRLPLS
no signal,0/6,0/18,KSSQSVLKESRNKNSVA,WASTRES,QQQHRLPLS
0.76,6/6,1/18,KLQQSFLYESQNWNSVA,NASKRES,QQYHRLPLS
2.36,3/6,0/18,KLSEFYRMETRNKNSVA,DNSTRES,QDYDRLPLS
1.27,6/6,1/18,FMQMDNDRMTDAAKNIA,DVDMRET,QQYARLPFM
-0.05,6/6,1/18,HTQHLGFGDPYHWNNVA,DVSQVCS,QQYARLPLT
0.44,6/6,2/18,KLSQSDLYESRNKNSVA,EASTRES,QDYHRLPLS
no signal,0/6,0/18,KSSQSVLAESRNKNSVA,DASYRES,QQPDRLPLS
-0.39,6/6,0/18,KLPQSVPYESRNKNSVA,NASTREQ,QQYHRLPLS
0.24,6/6,2/18,LVSQQNLYEDRNKNSVA,NASQRLL,QQYHRLPLS
0.56,6/6,0/18,KFSQSWLYESRNKNSVA,HASTREQ,QQYHRLPLS
-0.33,6/6,2/18,KVSQSVLYEDRNKNSVA,QASTRES,QQYHRLPLS
1.79,5/6,0/18,KLSMLYRYESQEKNSIA,EMSTREE,QSYHRLPLS
0.00,6/6,1/18,KSSQSVLTNSRNKNSVA,DGSTRES,QQYHRLPLS
no signal,0/6,0/18,KSSQYVLYESRNKNSVA,WASTRES,QQYHRLPTS
2.35,5/6,1/18,SISMLLNFESKIGNNVA,QMETRIN,QQYDRLPLS
-0.11,6/6,3/18,KVSQSVLGESRNKNSVA,DASTRES,QQYHRLPLS
no signal,0/6,0/18,ILYDSVGTLQRNKNSVA,DNSTRES,QQYDRLPLS
0.25,6/6,3/18,KLSNSELYESRNKNSVA,EASTRES,QQYHRLPLS
0.45,6/6,1/18,NVAGMMDNHNNQNQHIA,DMEIKCD,QQYQRLPLH
0.04,6/6,1/18,KLSQSYLYESRNKNSVA,NASTREW,QQYHRLPLS
2.12,4/6,0/18,KSSQSVLYESRNKNSVA,GASTRES,QQYHRLPLP
2.43,6/6,0/18,KLSSHYFESYGERQAVA,DNEAIMN,QQYHYLPLS
0.93,6/6,0/18,KLPNSSLYESRNKNQVA,SASQRES,QQYHRLPLS
0.07,6/6,2/18,KLDQSDWLQSRNVNSVA,QASTRES,QQYHRLPLS
0.33,6/6,1/18,KVSQSVPYESRNKNSVA,EASTRES,QDYHRLPLS
0.60,6/6,1/18,KLSQSELYESRCHNNVA,EASQRES,QQYHRLPLS
2.04,5/6,0/18,KLAMYLEMWADTKHAVA,DANHKTS,QQYNRLPIS
0.40,6/6,1/18,KVMQSEWYESRWKNSVA,NASQRES,QQYHRLPLS
-0.45,6/6,2/18,KLSQSMLYEERNKNNVA,SASQREW,QQYHRLPLS
0.00,6/6,0/18,KSSQSVLYESCNKNSVA,GASTRES,QQYCRLPLS
0.91,6/6,0/18,KSSQSVLYESRNKNSVA,WGSTREL,QQYHRLPLS
-0.23,6/6,0/18,KQSQSVLYEWRNKNSVA,DGSTRES,QQYHRLPLS
3.07,1/6,0/18,KVSDPMVEWIANQSAVA,DHADTQH,QQYARLPLS
1.37,6/6,0/18,HITDVMYNNNEGMQSIA,DKAISVN,QQYFRLPLD
0.70,6/6,3/18,KQSFSVLQESMNKNSVA,DASTRES,QQYHRLPLS
0.18,6/6,3/18,KSDQGVLYESRNKNSVA,GASQRWS,QQYHRLPLS
0.19,6/6,2/18,KLFQSVLYESRNKNSVA,HASTRED,QQYHRLPLS
-0.21,6/6,0/18,MISDLTMEGSRNKNSVA,DLSTRGS,QQYHRLPLS
no signal,0/6,1/18,KLFDRTMEGIANQNAVA,EDNDVSV,QQYSILPLT
2.16,4/6,1/18,KSSQSVLYESRNKNSVA,WASTRES,QQYTRHPLW
0.29,6/6,0/18,KSSISWLYESRNKNSVA,AASTRES,QQYHRLPLS
0.68,6/6,0/18,KLPQSSLYESRNKNQVA,SASTREM,QQYHRLPLS
2.47,5/6,0/18,SLRMMPPVGYAYDENVA,NASQLFS,QQYFMLPLT
1.92,6/6,1/18,SLTAHVEEKKGAEASVA,EAVMLES,QQYHQLPLM
0.61,6/6,3/18,MISDLMLHGSRNKNPIA,NASTREY,QQYHRLPLE
0.75,6/6,2/18,SFHEINFEGLAQTANVA,NASYLFE,QQYFRLPLT
0.58,6/6,0/18,KLRQSGLYESRNKNSVA,QASTRES,QQYHRLPLS
-0.25,6/6,1/18,KLPQGVLYESRNKNSVA,GASYRES,QQYHRLPLS
0.78,6/6,0/18,KLYQVTGYEMLNKDSVA,QTSTRVN,QDYHRLPLS
0.97,1/6,0/18,KLSMMMRFLTEEKNSIA,ELVTRMS,QQYHRLPLS
no signal,0/6,0/18,ILSQMMLAAGNKHSSVA,QANNRND,QQYHRLPLS
0.63,6/6,0/18,KSSQSVLYESHNKNSVA,NASTRMS,QQYHRLPLS

The last 4 entries again:

| CDR-L1 | CDR-L2 | CDR-L3 | mean, log10 nM | replicates with signal | empty controls |
|---|---|---|---|---|---|
| KLYQVTGYEMLNKDSVA | QTSTRVN | QDYHRLPLS | 0.78 | 6/6 | 0/18 |
| KLSMMMRFLTEEKNSIA | ELVTRMS | QQYHRLPLS | 0.97 | 1/6 | 0/18 |
| ILSQMMLAAGNKHSSVA | QANNRND | QQYHRLPLS | no signal | 0/6 | 0/18 |
| KSSQSVLYESHNKNSVA | NASTRMS | QQYHRLPLS | 0.63 | 6/6 | 0/18 |

The authors averaged sequences with at least three values out of six and counted those with two or fewer as poor binders. Values of this round are not directly comparable with the first-round values of the same sequences. The parent sequence was in this pool as ten entries: three were never detected, three once, and four in most replicates, with averages from 0.34 to 2.37.

Source: Li et al. 2023 (doi:10.1038/s41467-023-39022-2), MIT Lincoln Laboratory and A-Alpha Bio; data file from the FLAb repository.